Experimental data published in PubChem BioAssay AID492963 (The Scripps Research Institute Molecular Screening Center, 2010).
Only a part is listed here, and it is no random draw. Active and inactive are the calls of the source. Cut-off read from the data, not from the text of the source: active = inhibition above about 29%; inactive = the rest.

Protein sequences, listed by entry. Tags and fused reporters are not part of them.
UniProt O43613, whole entry: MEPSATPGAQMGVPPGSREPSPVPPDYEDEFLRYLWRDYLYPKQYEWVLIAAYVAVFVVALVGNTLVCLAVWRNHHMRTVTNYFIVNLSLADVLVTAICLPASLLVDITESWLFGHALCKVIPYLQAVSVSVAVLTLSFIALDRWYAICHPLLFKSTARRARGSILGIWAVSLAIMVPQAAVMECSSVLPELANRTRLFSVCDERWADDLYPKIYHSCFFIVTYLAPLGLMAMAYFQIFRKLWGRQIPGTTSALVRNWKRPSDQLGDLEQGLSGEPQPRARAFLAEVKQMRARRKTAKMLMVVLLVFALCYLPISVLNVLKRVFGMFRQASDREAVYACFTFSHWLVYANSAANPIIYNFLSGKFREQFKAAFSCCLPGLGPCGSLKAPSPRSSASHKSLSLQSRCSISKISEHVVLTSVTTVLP

Target: Orexin/Hypocretin receptor type 1 (Homo sapiens) (UniProt O43613)
Experiment: OX1R (HCRTR1) antagonists, confirmation, fluorescence, CHO/OX1R cells, Fluo-8 calcium, orexin A (AID 492963);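 note: 0% = agonist challenge alone and 100% = reference antagonist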
Details: orexin A calcium Fluo-8 fluorescence, at 5 µM, stronger effect = higher value

SMILES | inhibition
CP(=O)(Nc1ccc2c(c1)OCCO2)Oc1ccccc1 (stereo unspecified) | inactive: -5%
